Measured values from US9266877B2, “Apoptosis-inducing agents for the treatment of cancer and immune and autoimmune diseases” (priority 2011, dated 2016).
pKi: −log10 of the molar value.

By UniProt entry, the sequences of proteins in these tests, tags left out.
UniProt Q07817, whole entry: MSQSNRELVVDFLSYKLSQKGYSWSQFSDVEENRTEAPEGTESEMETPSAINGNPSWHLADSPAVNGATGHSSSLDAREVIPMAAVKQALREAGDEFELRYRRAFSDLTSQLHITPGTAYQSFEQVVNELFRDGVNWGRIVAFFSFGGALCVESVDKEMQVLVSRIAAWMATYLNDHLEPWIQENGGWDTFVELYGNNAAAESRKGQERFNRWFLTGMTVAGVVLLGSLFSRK

Target: Bcl-xL (Homo sapiens (Human), UniProt Q07817)
Assay: Time Resolved-Fluorescence Resonance Energy Transfer (TR-FRET) binding assay, competition with F-Bak
Conditions: competition with F-Bak probe, GST-Bcl-xL

| Compound | pKi |
| --- | --- |
| Cc1c(-c2ccc(N3CCc4cccc(C(=O)Nc5nc6ccccc6s5)c4C3)nc2C(=O)O)cnn1C[C@@H]1CC[C@@H]2C[C@H]1C2(C)C [Example 85, 6-[8-(1,3-benzothiazol-2-ylcarbamoyl)-3,4-dihydroisoquinolin-2(1H)-yl]-3-(1-{[(1R,2R,5R)-6,6-dimethylbicyclo[3.1.1]hept-2-yl]methyl}-5-methyl-1H-pyrazol-4-yl)pyridine-2-carboxylic acid] | 9.15 |
| Cc1c(-c2ccc(N3CCc4cccc(C(=O)Nc5nc6ccccc6s5)c4C3)nc2C(=O)O)cnn1C[C@@H]1CC[C@H]2C[C@@H]1C2(C)C [Example 86, 6-[8-(1,3-benzothiazol-2-ylcarbamoyl)-3,4-dihydroisoquinolin-2(1H)-yl]-3-(1-{[(1S,2R,5S)-6,6-dimethylbicyclo[3.1.1]hept-2-yl]methyl}-5-methyl-1H-pyrazol-4-yl)pyridine-2-carboxylic acid] | 8.70 |
| Cc1c(-c2ccc(N3CCc4cccc(C(=O)Nc5nc6ccccc6s5)c4C3)nc2C(=O)O)cnn1C[C@@H]1C[C@@H]2C=C[C@H]1C2 [Example 91, 6-[8-(1,3-benzothiazol-2-ylcarbamoyl)-3,4-dihydroisoquinolin-2(1H)-yl]-3-{1-[(1R,2R,4R)-bicyclo[2.2.1]hept-5-en-2-ylmethyl]-5-methyl-1H-pyrazol-4-yl}pyridine-2-carboxylic acid] | 9.05 |
| Cc1c(-c2ccc(N3CCc4cccc(C(=O)Nc5nc6ccccc6s5)c4C3)nc2C(=O)O)cc(C#N)n1CC1(N2CCCCC2)CCCCC1 [Example 131, 6-[8-(1,3-benzothiazol-2-ylcarbamoyl)-3,4-dihydroisoquinolin-2(1H)-yl]-3-(5-cyano-2-methyl-1-{[1-(piperidin-1-yl)cyclohexyl]methyl}-1H-pyrrol-3-yl)pyridine-2-carboxylic acid] | > 10.00 |
| O=C(Nc1nc2ccccc2s1)c1cccc2c1CN(c1ccc(-c3ccc4c(c3)CCN(CC3CCCCC3)C4)c(C(=O)O)n1)CC2 [Example 137, 6-[8-(1,3-benzothiazol-2-ylcarbamoyl)-3,4-dihydroisoquinolin-2(1H)-yl]-3-[2-(cyclohexylmethyl)-1,2,3,4-tetrahydroisoquinolin-6-yl]pyridine-2-carboxylic acid] | 8.82 |
| Cc1c(-c2ccc(N3CCc4cccc(C(=O)Nc5nc6ccccc6s5)c4C3)nc2C(=O)O)nnn1C[C@@H]1CC[C@H]2C[C@@H]1C2(C)C [Example 158, 6-[8-(1,3-benzothiazol-2-ylcarbamoyl)-3,4-dihydroisoquinolin-2(1H)-yl]-3-(1-{[(1S,2R,5S)-6,6-dimethylbicyclo[3.1.1]hept-2-yl]methyl}-5-methyl-1H-1,2,3-triazol-4-yl)pyridine-2-carboxylic acid] | > 10.00 |
| Cc1c(-c2ccc(N3CCc4cccc(C(=O)Nc5nc6ccccc6s5)c4C3)nc2C(=O)O)ccnc1N(C)C1CCCCC1 [Example 161, 6-[8-(1,3-benzothiazol-2-ylcarbamoyl)-3,4-dihydroisoquinolin-2(1H)-yl]-2′-[cyclohexyl(methyl)amino]-3′-methyl-3,4′-bipyridine-2-carboxylic acid] | > 10.00 |
